Source: US20160016998A1, “HIGH-AFFINITY MATRIPTASE INHIBITORS” (MERCK PATENT GMBH, priority 2013, published 2016)
pKi: −log10 of the molar value. Read-outs that look alike come from different tables or passages of the source.

The chains behind the UniProt entries cited, without tags or fusion partners. Residues count along the entry.
UniProt Q9Y5Y6, 615-855 limits assumed: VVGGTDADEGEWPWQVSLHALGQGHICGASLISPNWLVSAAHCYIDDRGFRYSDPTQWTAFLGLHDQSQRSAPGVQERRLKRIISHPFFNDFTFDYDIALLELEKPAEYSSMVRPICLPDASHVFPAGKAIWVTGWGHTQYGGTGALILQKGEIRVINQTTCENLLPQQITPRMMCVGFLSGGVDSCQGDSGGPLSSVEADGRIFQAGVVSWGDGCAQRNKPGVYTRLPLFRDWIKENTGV

Legend:
[1] = target: T1, matriptase (Homo sapiens, UniProt Q9Y5Y6); test: Matriptase enzyme inhibition assay with chromogenic substrate Boc-QAR-pNA; type: biochemical
[2] = target: T1, matriptase; conditions: as published before, cited from earlier work

For CC[C@H](C)[C@@H]1NC(=O)[C@@H]2CCCN2C(=O)[C@@H]2CCCN2C(=O)[C@H]([C@@H](C)CC)NC(=O)[C@H](CO)NC(=O)[C@H](CCCCN)NC(=O)[C@H]([C@@H](C)O)NC(=O)[C@@H](NC(=O)[C@H](CCCNC(=N)N)NC(=O)CN)CSSC[C@@H](C(=O)N[C@@H](Cc2ccccc2)C(=O)N2CCC[C@H]2C(=O)N[C@@H](CC(=O)O)C(=O)O)NC1=O, the “ΔBG(x) − ΔBG(SFTI-1[1, 14])” value ([1]; difference in free energy of binding/dissociation, ΔBG = −RTlnKi, pH 7.6 (Table 1)) is given as 0 kcal/mol, the “ΔBG(x)-ΔBG(SFTI-1[1,14])” value ([1]; pH 7.6 (Table 2)) is given as 0 kcal/mol and the pKi ([2]; matriptase, pH 7.6 (Table 1)) is given as 6.15. The pKi ([2]; read-out: Matriptase Ki, pH 7.6 (Table 2)) was 6.15.
